ChEMBL document CHEMBL1129044, “Potent, selective tetrahydro-beta-carboline antagonists of the serotonin 2B (5HT2B) contractile receptor in the rat stomach fundus” (J Med Chem, 1996)

Protein sequences, listed by entry. Tags and fused reporters are not part of them.
UniProt P30994, whole entry, looked up: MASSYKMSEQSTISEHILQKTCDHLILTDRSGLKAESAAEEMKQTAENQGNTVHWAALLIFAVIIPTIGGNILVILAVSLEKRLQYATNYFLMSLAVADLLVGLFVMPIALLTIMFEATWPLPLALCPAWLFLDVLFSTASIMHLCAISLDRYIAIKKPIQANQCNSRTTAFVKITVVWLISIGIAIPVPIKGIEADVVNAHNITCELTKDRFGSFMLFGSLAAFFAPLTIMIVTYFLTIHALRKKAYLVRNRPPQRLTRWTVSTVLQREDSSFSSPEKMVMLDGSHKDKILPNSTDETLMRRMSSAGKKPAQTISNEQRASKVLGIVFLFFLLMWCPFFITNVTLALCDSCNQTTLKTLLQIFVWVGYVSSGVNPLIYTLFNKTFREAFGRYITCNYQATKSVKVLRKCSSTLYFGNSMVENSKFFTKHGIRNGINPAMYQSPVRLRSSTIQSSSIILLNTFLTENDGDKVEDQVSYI
UniProt P14842, whole entry, looked up: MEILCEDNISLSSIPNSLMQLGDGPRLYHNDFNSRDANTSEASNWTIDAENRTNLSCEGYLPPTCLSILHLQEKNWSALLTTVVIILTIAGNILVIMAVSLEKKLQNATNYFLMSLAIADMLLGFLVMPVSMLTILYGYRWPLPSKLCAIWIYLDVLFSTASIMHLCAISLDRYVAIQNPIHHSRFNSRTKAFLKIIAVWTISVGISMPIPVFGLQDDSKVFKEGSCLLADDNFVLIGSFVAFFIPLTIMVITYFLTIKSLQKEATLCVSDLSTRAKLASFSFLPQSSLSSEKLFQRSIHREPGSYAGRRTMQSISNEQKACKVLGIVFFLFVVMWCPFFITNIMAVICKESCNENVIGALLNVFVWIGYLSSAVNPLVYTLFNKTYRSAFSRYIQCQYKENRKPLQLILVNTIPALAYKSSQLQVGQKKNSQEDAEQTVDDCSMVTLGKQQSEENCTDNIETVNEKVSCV

Experiments:
[1] = molecular target: Serotonin receptor 2a and 2b (5HT2A and 5HT2B) (Rattus norvegicus) (UniProt P30994+P14842); assay: Relative binding to serotonin receptors 5-HT-2B and 5-HT-2A (Ratio of […] Ki); type: protein assay
Rattus norvegicus = species: Rattus norvegicus; assay: Relative binding to serotonin receptors 5-HT-2B to 5-HT2C (Ratio of […] Ki)

With `Cn1ccc2cc3c(cc21)CCN3C(=O)Nc1cccnc1` the Ratio [1] was 490 and the Ratio (Rattus norvegicus) was 3.02.
